## Apparent affinities of Ab-95 variants for a coronavirus HR2 peptide

From the AlphaSeq antibody data of Engelhart et al. 2022 (doi:10.1038/s41597-022-01779-4), copy in the FLAb collection.

All variants were tested on one target, the spike HR2 peptide PDVDLGDISGINAS (SARS-CoV-2).

Parent scFv Ab-95: VH joined to VL by a 15-residue (Gly4Ser)3 linker. Changes lie in the light chain CDRs alone.
VH: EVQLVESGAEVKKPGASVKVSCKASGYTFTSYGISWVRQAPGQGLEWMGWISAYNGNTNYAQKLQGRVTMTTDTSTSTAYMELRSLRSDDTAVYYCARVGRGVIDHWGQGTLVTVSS
VL: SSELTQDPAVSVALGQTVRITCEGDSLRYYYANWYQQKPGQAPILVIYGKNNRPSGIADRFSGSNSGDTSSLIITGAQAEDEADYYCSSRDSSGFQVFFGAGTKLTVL

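AAYL52 was designed without a model: most single CDR substitutions and a random sample of double and triple ones. The assay is AlphaSeq: two haploid yeast populations carry antibody and antigen on their surface. The frequency of each diploid, read from paired DNA barcodes, reflects how well the two displayed proteins bind. The ratio of observed to expected reads was calibrated, replicate by replicate, on BCL2-family standards whose Kd was known from biolayer interferometry. There are three technical replicates.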

Variants are written as CDR1, CDR2 and CDR3 of the light chain (limits as in the source). Parent: EGDSLRYYYAN, GKNNRPS, SSRDSSGFQVF. The read-out is the apparent dissociation constant on a log10 scale (nM): the lower, the stronger. A mean of the replicates is given; it leaves out those without a signal. Where no diploid with the target was found in that replicate, the entry reads "ND": below detection, most likely a poor binder, though not proof of it. Empty control strains, which show no peptide, gave a signal in 28% of pairings with library AAYL52; the median was 3.91 and 95% of these signals were weaker than 2.90. No background was subtracted. The control count says in how many pairings with the empty strains this scFv gave a signal, with their mean in brackets.

CDR-L1 | CDR-L2 | CDR-L3 | log10 Kd, replicates | mean log10 Kd (nM) | signal with controls
EGDLLRYYQAN | GENNRPS | SSRDSSGFQVF | 5.43 3.28 2.93 | 3.88 | 1 of 9 (3.76)
EGDSLRYYRAN | GKNNRPS | SSADSSGFQEF | 4.85 4.09 ND | 4.47 | 3 of 9 (3.82)
EGYSLRYYEAH | GKNNRPS | SSRDSSGFQVF | 4.81 3.53 ND | 4.17 | 1 of 9 (5.17)
PGDSLRYYRAN | GKNNAPS | SSRDSSGFQVF | 2.95 ND ND | 2.95 | 2 of 9 (3.93)
EGDVLRYYYAN | GKNNRPS | SSRDSSGFVVF | ND ND ND | ND | 3 of 9 (3.68)
EGDSLRYYYPN | GKNNQPS | SSFDSSGFQVF | 3.52 3.66 3.35 | 3.51 | 5 of 9 (4.24)
EADSLRYYYAN | FKNNRPS | SSRNSSGFQVF | 3.61 ND ND | 3.61 | 1 of 9 (3.61)
EGDSLRYYIAN | GKNNTPS | SSRDSSGFQVH | ND 4.29 3.95 | 4.12 | 2 of 9 (4.21)
EGDSLRYYYAE | GKNNRPM | SSRDSSGFQVG | ND 5.05 ND | 5.05 | 3 of 9 (4.18)
TGDSLRYYYAN | GKNNRPS | SSRDSSGFQIL | 2.01 2.17 1.94 | 2.04 | 1 of 9 (4.00)
EGDSLRYYYAN | GKNNRPS | SSRDSSGFDNF | 2.29 2.34 1.67 | 2.10 | 5 of 9 (3.79)
EGDSLRIYYAN | GKYNRPS | ESRDSSGFQVF | 4.56 5.66 ND | 5.11 | 5 of 9 (3.81)
WGDSLRYYYAN | GKNNRPS | SSRDSSGFQTN | 2.87 3.94 3.10 | 3.31 | 2 of 9 (3.33)
EGDSLRYYQAN | GKNPRGS | SSRDSSGFQVF | 3.02 2.53 2.33 | 2.63 | 3 of 9 (3.98)
LGDSLGYYYAN | GKMNRPS | SSRDSSGFQVF | 3.96 4.15 4.54 | 4.22 | 5 of 9 (4.23)
ELDSLRYYYKN | GKNNRPS | SSTDSSGFQVF | ND 5.02 ND | 5.02 | 1 of 9 (4.13)
EGDSLRYYYAN | GKNNRPS | SSRDDSGFQVF | 2.13 2.02 1.54 | 1.90 | 4 of 9 (3.87)
EGDSLRYYYSN | GKNNRPS | SSRDSSGPLVF | ND ND ND | ND | 2 of 9 (4.03)
EGDSLRYYYAN | GKHNRPS | SSRDSQGFQVL | ND 5.17 ND | 5.17 | 2 of 9 (3.18)
KGDSLSYYYAN | GKYNRPS | SSRDSSGFQVF | 2.87 2.23 3.44 | 2.85 | 5 of 9 (3.88)
EGDSLRYPYAN | GKNNRPS | SSDDSSGYQVF | ND ND ND | ND | 1 of 9 (2.79)
EGQSWRYYYAN | GKNYRPS | SSRDSSGFQVF | 3.31 ND 4.35 | 3.83 | 3 of 9 (4.24)
EGDSLRYYYRN | GKNNRPS | SSWDSSGDQVF | ND 4.24 4.40 | 4.32 | 1 of 9 (5.11)
LGDSLRYDYAN | GKNNRPS | SSRDSSGQQVF | 2.21 2.12 1.97 | 2.10 | 2 of 9 (3.39)
EGDSLREYYAN | GKNNRPS | ASRFSSGFQVF | 2.44 2.18 1.69 | 2.10 | 6 of 9 (3.49)
EGDSLRYHYSN | GKCNRPS | SSRDSSGFQVF | 2.57 2.96 3.71 | 3.08 | 5 of 9 (3.93)
EGKSLRYYYAN | GKNNRPQ | SSRDSSGFQVF | 2.34 2.24 2.03 | 2.20 | 0 of 9
EGYSLRSYDAN | GKNNRPS | SSRDSSGFQVF | 1.07 1.02 0.41 | 0.83 | 4 of 9 (4.48)
EGDSLRYYYAN | GKNNSPS | SSRDSSGFTVF | 4.25 4.02 ND | 4.13 | 3 of 9 (4.58)
EGDSLRYYYAN | GKNCRPS | SSRDASGFQVF | 2.78 3.08 2.24 | 2.70 | 2 of 9 (3.67)
NGDSLRYYYAN | GSNNMPS | SSRDSSGFQVF | ND 3.45 3.65 | 3.55 | 4 of 9 (3.77)
EGDSLRYRYGN | GKNNRPS | SSRDSSGFQKF | 2.53 2.52 2.32 | 2.46 | 8 of 9 (4.03)
EGDSLNYYYNN | GKNNRPS | SSRDSSFFQVF | 3.41 4.90 ND | 4.16 | 1 of 9 (3.32)
EGDSLRYYYAN | TKNYRPS | SSSDSSGFQVF | 4.52 4.95 ND | 4.73 | 4 of 9 (3.66)
EVDSLRGYYAN | GKNNRPS | SSRDSSGFQVC | ND 3.64 ND | 3.64 | 5 of 9 (3.83)
EGDSLRVYYAN | GKNNRPS | SSRDASGFQVF | 2.98 3.18 2.75 | 2.97 | 5 of 9 (3.00)
EGDSLRYYYAN | GKNNRPM | ISRDSSGFQIF | ND 3.62 ND | 3.62 | 1 of 9 (2.71)

Top 5 of the variants detected in all replicates, tightest first:

CDR-L1 | CDR-L2 | CDR-L3 | log10 Kd, replicates | mean log10 Kd (nM) | signal with controls
EGYSLRSYDAN | GKNNRPS | SSRDSSGFQVF | 1.07 1.02 0.41 | 0.83 | 4 of 9 (4.48)
EGDSLRYYYAN | GKNNRPS | SSRDDSGFQVF | 2.13 2.02 1.54 | 1.90 | 4 of 9 (3.87)
TGDSLRYYYAN | GKNNRPS | SSRDSSGFQIL | 2.01 2.17 1.94 | 2.04 | 1 of 9 (4.00)
LGDSLRYDYAN | GKNNRPS | SSRDSSGQQVF | 2.21 2.12 1.97 | 2.10 | 2 of 9 (3.39)
EGDSLRYYYAN | GKNNRPS | SSRDSSGFDNF | 2.29 2.34 1.67 | 2.10 | 5 of 9 (3.79)